Target: T1, Bifunctional dihydrofolate reductase-thymidylate synthase (Toxoplasma gondii, UniProt Q07422)
T1 sequence (Q07422 whole entry): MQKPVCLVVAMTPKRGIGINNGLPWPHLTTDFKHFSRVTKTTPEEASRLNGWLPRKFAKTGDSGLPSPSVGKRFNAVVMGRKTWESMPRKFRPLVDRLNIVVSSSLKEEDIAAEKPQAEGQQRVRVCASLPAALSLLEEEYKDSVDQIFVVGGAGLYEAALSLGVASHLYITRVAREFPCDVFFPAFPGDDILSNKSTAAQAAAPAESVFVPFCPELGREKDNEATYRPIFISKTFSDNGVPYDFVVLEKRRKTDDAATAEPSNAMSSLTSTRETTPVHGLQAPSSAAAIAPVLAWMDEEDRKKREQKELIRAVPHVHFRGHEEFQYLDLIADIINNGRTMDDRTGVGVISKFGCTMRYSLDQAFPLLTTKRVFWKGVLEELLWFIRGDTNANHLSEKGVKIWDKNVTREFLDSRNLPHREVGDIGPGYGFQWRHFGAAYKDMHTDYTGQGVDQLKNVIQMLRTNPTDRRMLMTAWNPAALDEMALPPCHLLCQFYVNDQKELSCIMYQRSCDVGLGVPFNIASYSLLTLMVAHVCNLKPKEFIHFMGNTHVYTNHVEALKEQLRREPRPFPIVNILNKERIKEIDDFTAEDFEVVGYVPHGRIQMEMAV
Assay: Inhibition of Toxoplasma gondii DHFR using dihydrofolic acid substrate and NADPH cofactor by spectrophotometric assay

Work on COc1cc(Sc2[nH]c3nc(N)nc(N)c3c2C)cc(OC)c1OC yielded an IC50 of 686 nM.
